Consider 2 compounds from PubChem BioAssay AID560 (The Scripps Research Institute Molecular Screening Center, 2006).

Sequences of proteins named here, by UniProt entry; tags and fusion partners are left off.
UniProt P35398, whole entry: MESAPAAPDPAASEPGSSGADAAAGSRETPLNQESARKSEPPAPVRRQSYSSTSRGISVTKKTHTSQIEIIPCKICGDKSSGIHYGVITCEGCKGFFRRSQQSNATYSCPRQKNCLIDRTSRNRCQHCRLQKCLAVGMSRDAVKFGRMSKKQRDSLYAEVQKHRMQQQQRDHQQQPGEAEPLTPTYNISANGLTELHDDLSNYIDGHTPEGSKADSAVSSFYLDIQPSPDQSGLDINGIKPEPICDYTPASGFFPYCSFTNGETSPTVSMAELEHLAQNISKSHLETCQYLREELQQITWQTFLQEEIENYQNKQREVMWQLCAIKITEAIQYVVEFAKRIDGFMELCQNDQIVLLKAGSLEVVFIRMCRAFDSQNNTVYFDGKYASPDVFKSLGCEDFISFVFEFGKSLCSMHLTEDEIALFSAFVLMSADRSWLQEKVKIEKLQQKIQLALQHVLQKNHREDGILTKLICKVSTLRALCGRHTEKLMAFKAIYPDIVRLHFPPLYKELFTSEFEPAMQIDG

SMILES strings stand for the structures. The list shows a part of the results, in another mix than the full data. Some of these compounds have results that are not shown, active ones among them. Activity calls are given as the source filed them.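 The calls were made as follows: active = activation above the mean of all tested compounds plus 3 SD (cut at about 49% in these data); inactive = the rest.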

The target in this test is Nuclear receptor ROR-alpha (Homo sapiens) (UniProt P35398). Put plainly: RORA ligand-binding domain transcriptional activation – cell-based, luminescence, primary screen (AID 560).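 Also: 0% = DMSO-treated RORA cells and 100% = added signal equal to DMSO minus mock-transfected cells.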 Particulars: CHO-K1 Gal4-RORA LBD luciferase reporter, at 10 µM, stronger effect = higher value, percent increase over mock-subtracted basal signal. On the technique in general: A reporter such as luciferase makes a cellular process visible.
Turning to `CN(C)c1cccc(C(=O)NCC2(N(C)C)CCCCC2)c1`, the activation was inactive: -12.3%.

As to `O=C(OC1CN2CCC1CC2)C(CO)(c1ccccc1)c1ccccc1` (configuration not stated), the activation is inactive: -11.2%.
